doi:10.1101/2022.03.03.481873v1

Tested on: O=C(O)CCC(=O)C1=CC=C[C@@H](O)[C@@H]1C(=O)O
Experiment: purified protein
Details: 50 mM Tris pH 8.0, 0.1 mM MnCl2, 25 °C, Amycolatopsis numbering

Substance: EfNSAR/OSBS (Enterococcus faecalis V583; R266Q)
- Km: 19 ± 2 µM
- kcat: 0.08 ± 0.002 s⁻¹
